These results are taken from patent publication US10759839B2, “Cell-penetrating peptide” (NEOREGEN BIOTECH, priority 2016, dated 2020).

In the experiment the test system is fibroblast NIH3T3 cell line. The experiment in a line: Cell growth promotion effect of purified ICT-Myc peptide (FIG. 12). The class given is cell-based. On the procedure: FIG. 12 is a graph showing results of confirming a growth promotion effect of the ICT-Myc peptide purified in a cell group treated with an ICT-Myc peptide.
As a result, it could be confirmed that about 60% growth promotion was induced in the cells, in particular, at a concentration of 7.5 μM (FIG. 12).

B1: ICT-Myc: SEQ ID NO: 9, c-Myc sequence (SEQ ID NO: 8) linked at C-terminal of SEQ ID NO: 4; His-tagged form SEQ ID NO: 10 (protein)
chain: RKKRRQRRCFRCRQAGHWISDCRLKSKVKRRTHNVLERQRRNELKRSFFALRDQIPELENNEKAPKVVILKKATAYILSVQAEEQKLISEEDLLRKRREQLKHKLEQLRNSCA
modifications: ICT-Myc
In the case of B1, the growth promotion result (7.5 μM, NIH3T3) is “about 60%”. The “growth promotion effect, dependence on concentration” value (NIH3T3, for each concentration) is listed as “in proportion to the concentration”.
